In US8883749B2, “Transcription factor inhibitors and related compositions, formulations and methods” (The Ohio State University, priority 2009, dated 2014):

How the values were obtained:
[1] = tested on: MDA-MB-231 breast cancer cells; conditions: treatment 4 h, migration 24 h
[2] = tested on: MDA-MB-231 breast cancer cells; conditions: LLL12 500 nM with doxorubicin 100-400 nM, 72 hours
[3] = tested on: HPAC pancreatic cancer cells; conditions: LLL12 1000 nM with gemcitabine, 72 hours
U87 glioblastoma cells = test: MTT cell viability assay; assay type: cell-based; conditions: Homo sapiens, 72 hours, 10% FBS, read-out: half-maximal inhibitory concentration (IC50), cell viability
Procedure: (§1) STAT3 activation is important for tumor cell proliferation and survival. […] A dose-dependent inhibition in tumor cell proliferation/viability was seen after 72 hours of treatment. […] The inhibitory efficacy of the three compounds was compared.
(§2) The cells were incubated at 37° C. for a period of 72 hours. 3-(4,5-Dimethylthiazolyl)-2,5-diphenyltetrazolium bromide (MTT) viability assay was done according to manufacturer's protocol (Roche Diagnostics, Mannheim, Germany). The absorbance was read at 595 nm. Half-maximal inhibitory concentrations (IC50) were determined using Sigma Plot 9.0 Software (Systat Software Inc., San Jose, Calif.).

[4] = tested on: HPAC pancreatic cancer cells; test: MTT cell viability assay; assay type: cell-based; conditions: Homo sapiens, 72 hours, 10% FBS, read-out: half-maximal inhibitory concentration (IC50), cell viability
Procedure: as §1, §2

[5] = tested on: MDA-MB-231 breast cancer cells; test: MTT cell viability assay; assay type: cell-based; conditions: Homo sapiens; MDA-MB-231, MTT, 72 hours, 10% FBS; read-out: half-maximal inhibitory concentration (IC50), cell viability
Procedure: as §1, §2

U373 glioblastoma cells = test: MTT cell viability assay; assay type: cell-based; conditions: Homo sapiens, U373 MG, 72 hours, 10% FBS, read-out: half-maximal inhibitory concentration (IC50), cell viability
Procedure: as §1, §2

[6] = tested on: PANC-1 pancreatic cancer cells; test: MTT cell viability assay; assay type: cell-based; conditions: Homo sapiens; PANC-1, MTT, 72 hours, 10% FBS; read-out: half-maximal inhibitory concentration (IC50), cell viability
Procedure: as §1, §2

[7] = tested on: SK-BR-3 breast cancer cells; test: MTT cell viability assay; assay type: cell-based; conditions: Homo sapiens; SK-BR-3, MTT, 72 hours, 10% FBS; read-out: half-maximal inhibitory concentration (IC50), cell viability
Procedure: as §1, §2

`NS(=O)(=O)c1cccc2c1C(=O)c1cccc(O)c1C2=O` [LLL12] was tested, and the “concentration causing a significant decrease in cell migration” value [1] was ≥ 2.5 µM, the “Combinational Index (CI)” value [2] was “less than 1” and the “Combinational Index (CI)” value [3] was “less than 1”. It also gave an IC50 (U87 glioblastoma cells) of 210 nM, an IC50 [4] of 160 nM and an IC50 [5] of 970 nM. The IC50 (U373 glioblastoma cells) was 860 nM, the IC50 [6] was 290 nM and the IC50 [7] was 3090 nM.
